Experimental data as given in patent publication US20080152589A1, “Diagnostics and Therapeutics of Neurological Disease” (priority 2006, published 2008).
Several values for one entry are separate records, joined by “and”; a condition that tells them apart may be missing. Equal values may be shown once.

Chains of the proteins cited; added tags and fusions are not shown. Lines headed by an entry give the natural chain unless they say otherwise; changes in a name come on top.
UniProt P49841: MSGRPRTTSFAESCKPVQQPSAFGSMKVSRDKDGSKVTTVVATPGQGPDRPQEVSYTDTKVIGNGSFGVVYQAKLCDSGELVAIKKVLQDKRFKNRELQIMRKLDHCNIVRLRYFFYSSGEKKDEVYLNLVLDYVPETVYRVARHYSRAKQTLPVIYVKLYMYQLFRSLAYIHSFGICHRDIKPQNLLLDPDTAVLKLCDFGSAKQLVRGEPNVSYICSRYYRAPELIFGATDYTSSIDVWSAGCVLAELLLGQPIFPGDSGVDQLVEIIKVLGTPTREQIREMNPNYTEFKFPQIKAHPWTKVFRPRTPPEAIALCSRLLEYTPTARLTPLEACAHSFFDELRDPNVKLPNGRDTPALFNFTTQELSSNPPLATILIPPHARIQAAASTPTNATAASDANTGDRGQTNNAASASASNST

Target: GSK-3β (endogenous, HEK293 and SK-N-MC cells) (human) (UniProt P49841)
Experiment: cell-based or functional assay

decrease in total β-catenin levels (Western blot) after transient over-expression of Tau: 1.3 fold and 1.4 fold
Substance: 4 repeat Tau (full-length Tau protein with exon 10 sequences) (from UniProt P10636 1-441)
